# Measurements: article PMC4411481, “Cyclic nucleotide binding and structural changes in the isolated GAF domain of Anabaena adenylyl cyclase, CyaB2” (PeerJ, 2015)
# System: I308A mutant GAFb domain of CyaB2
# Assay: Cyclic nucleotide binding assay, I308A mutant GAFb
# Design: species or system Anabaena sp. PCC 7120
# Conditions: I308A mutant vs wild type; ∼1 nM 3H-cAMP
substance,measurement,value
"2,8 [^3H]-cAMP",reduction in binding of 3H-cAMP,50%
